The text below walks through data of PubChem BioAssay AID887 (National Center for Advancing Translational Sciences (NCATS), 2007).

Protein sequences, listed by entry. Tags and fused reporters are not part of them.
UniProt P16050, whole entry: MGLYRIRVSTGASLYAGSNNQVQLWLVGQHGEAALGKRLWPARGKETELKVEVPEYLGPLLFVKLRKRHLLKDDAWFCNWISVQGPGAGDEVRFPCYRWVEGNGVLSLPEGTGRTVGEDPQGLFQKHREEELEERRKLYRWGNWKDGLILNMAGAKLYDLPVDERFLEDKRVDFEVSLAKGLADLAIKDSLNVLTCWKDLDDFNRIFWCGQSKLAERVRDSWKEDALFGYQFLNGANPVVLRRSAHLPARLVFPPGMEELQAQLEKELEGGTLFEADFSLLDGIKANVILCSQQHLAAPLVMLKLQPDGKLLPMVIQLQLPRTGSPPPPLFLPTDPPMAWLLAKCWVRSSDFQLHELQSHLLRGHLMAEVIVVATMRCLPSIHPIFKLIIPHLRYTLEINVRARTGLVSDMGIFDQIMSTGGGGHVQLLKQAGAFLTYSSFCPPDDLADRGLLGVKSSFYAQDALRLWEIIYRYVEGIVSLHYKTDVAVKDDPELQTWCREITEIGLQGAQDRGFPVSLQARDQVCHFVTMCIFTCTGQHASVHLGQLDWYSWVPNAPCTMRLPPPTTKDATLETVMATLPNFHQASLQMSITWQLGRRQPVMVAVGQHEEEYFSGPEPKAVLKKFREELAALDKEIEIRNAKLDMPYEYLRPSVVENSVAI

Structures are written as SMILES. Only a part is listed here, and it is no random draw. Inconclusive results are not listed. Activity calls are given as the source filed them. Calls follow the shape of the dose curve; as a rule, active = well fitted inhibition curve with a large enough effect; inconclusive = small, poorly fitted or top-dose-only effect; inactive = no such curve, though single readings can be large or run the other way.
% is scaled to controls: 0 for no effect and ±100 for the full control effect.

For the test, the target named is Polyunsaturated fatty acid lipoxygenase ALOX15 (Homo sapiens) (UniProt P16050). Briefly: qHTS Assay for Inhibitors of 15-hLO (15-human lipoxygenase). Also: nearly all actives have a fitted effect of over 55% in size. Particulars: purified 15hLO-1, xylenol orange hydroperoxide absorbance; at 57.1 µM (top of the series) unless noted.
In the case of `NCC[C@@H](N)CSP(=O)(O)O`, the activity change, negative = inhibition was inactive: 4.36% [at 11.4 µM].
`COc1ccccc1OP(C)(=O)Nc1c(C)n(C)n(-c2ccccc2)c1=O` (configuration not stated): the activity change, negative = inhibition is inactive: 7.45%.
